Data on one compound can be found in patent US20120308567A1, “USE OF TYROSINE KINASE INHIBITORS FOR TREATMENT OF PROLACTINOMA” (CEDARS-SINAI MEDICAL CENTER, priority 2010, published 2012).

In this experiment the test system is EGF-induced HER2 and MAPK autophosphorylation. As to the kind of experiment: Western blotting of EGF-induced ErbB signaling and intracellular PRL in HER2CA GH3 cells. Type of experiment: cell-based, rat. A general note: In western blotting, separated proteins are transferred to a membrane and probed.

As to `COc1cc2ncnc(Nc3ccc(F)c(Cl)c3)c2cc1OCCCN1CCOCC1` [gefitinib], the “intracellular PRL levels” value is on record as “not by gefitinib”.
